Data set [1] in a line: Absorbance of aqueous iron complex solution irradiated with ultraviolet rays (253.7 nm). Type of data set: physicochemical. The following applies: aqueous solution of the Fe complex of the named ligand, Fe 100 μM, pH 5.0, ultraviolet 253.7 nm, 10-mm cell. How it is done: For comparison, absorbance measurement was performed using an aqueous solution of each of an iron complex of ethylenediaminetetraacetic acid (EDTA) (hereinafter, referred to as “Fe-EDTA”), an iron complex of diethylenetriamine-N,N,N',N'',N''-pentaacetic acid (DTPA) (hereinafter, referred to as “Fe-DTPA”), an iron complex of hydroxybenzylethylenediamine (HBED) (hereinafter, referred to as “Fe-HBED”), an iron complex of N,N'-ethylene-bis([…]) (hereinafter, referred to as “Fe-EDDHA”), an iron complex of citric acid, and an iron complex (hereinafter, referred to as “Fe-PDMA”) of a compound represented by the following formula (hereinafter, referred to as “PDMA”). […] Subsequently, a deionized water was added to fill up to 220 mL. This aqueous solution was left to stand at a temperature of 25° C. for 1 hour to yield an aqueous solution of an iron complex having an Fe concentration of 100 μM (5.6 ppm). Thereafter, the absorbance of this aqueous complex solution was measured. […] Subsequently, a deionized water was added to fill up to 220 mL. […] Thereafter, the absorbance of this aqueous complex solution was measured in the same manner as described above (see Table 1). […] Subsequently, about 220 mL of a deionized water was added to the resultant mixture to yield an aqueous complex solution having an Fe concentration of 100 μM (5.6 ppm).

Among the data in patent US20250382264A1, “HETEROCYCLE-CONTAINING AMINO ACID COMPOUND AND COMPLEX” (AICHI STEEL CORPORATION, priority 2022, published 2025) are Absorbance and Fe concentration values, retold here.

Where two headings read alike, the source gives them in different places.

Substance “iron complex of N,N′-ethylene-bis(hydroxyphenyl)glycine [Fe-EDDHA]” had an Absorbance in data set [1] of 1.117.
For “iron complex of diethylenetriamine-N,N,N′,N″,N″-pentaacetic acid [Fe-DTPA]”, the Fe concentration by setting is: (nutrient solution pH 5.0, 253.7 nm, ultraviolet irradiation time 15 min) 4.8 mg/L; (nutrient solution pH 5.0, 253.7 nm, ultraviolet irradiation time 30 min) 0.6 mg/L; (nutrient solution pH 5.0, 253.7 nm, ultraviolet irradiation time 60 min) 0 mg/L; (nutrient solution pH 5.0, 253.7 nm, ultraviolet irradiation time 90 min) 0 mg/L; (nutrient solution pH 5.0, Fe 100 μM, ultraviolet irradiation time 0 min) 4.8 mg/L.
